Assay results published in BindingDB's records for US9221831.

By UniProt entry, the sequences of proteins in these tests, tags left out.
UniProt P35372, whole entry: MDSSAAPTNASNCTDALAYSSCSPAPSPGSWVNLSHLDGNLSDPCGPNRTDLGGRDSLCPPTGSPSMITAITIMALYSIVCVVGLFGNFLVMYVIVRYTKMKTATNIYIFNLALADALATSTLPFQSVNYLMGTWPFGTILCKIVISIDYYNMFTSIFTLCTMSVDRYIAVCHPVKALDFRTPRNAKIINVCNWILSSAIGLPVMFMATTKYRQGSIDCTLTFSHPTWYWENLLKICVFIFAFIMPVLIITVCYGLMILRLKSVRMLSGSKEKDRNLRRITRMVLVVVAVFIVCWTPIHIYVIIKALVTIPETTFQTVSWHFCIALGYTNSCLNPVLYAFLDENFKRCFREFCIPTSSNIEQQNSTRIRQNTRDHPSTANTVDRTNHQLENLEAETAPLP
UniProt P41143, whole entry: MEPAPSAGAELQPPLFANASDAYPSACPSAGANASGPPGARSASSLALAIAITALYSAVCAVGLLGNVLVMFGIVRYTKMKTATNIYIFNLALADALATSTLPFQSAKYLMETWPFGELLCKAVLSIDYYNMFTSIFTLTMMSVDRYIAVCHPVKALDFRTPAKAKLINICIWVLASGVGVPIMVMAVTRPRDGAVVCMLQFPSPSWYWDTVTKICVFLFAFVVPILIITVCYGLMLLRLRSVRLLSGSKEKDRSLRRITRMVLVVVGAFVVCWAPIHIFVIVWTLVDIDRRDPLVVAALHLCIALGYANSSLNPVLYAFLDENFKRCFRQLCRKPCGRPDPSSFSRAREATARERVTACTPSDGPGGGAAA
UniProt P41145, whole entry: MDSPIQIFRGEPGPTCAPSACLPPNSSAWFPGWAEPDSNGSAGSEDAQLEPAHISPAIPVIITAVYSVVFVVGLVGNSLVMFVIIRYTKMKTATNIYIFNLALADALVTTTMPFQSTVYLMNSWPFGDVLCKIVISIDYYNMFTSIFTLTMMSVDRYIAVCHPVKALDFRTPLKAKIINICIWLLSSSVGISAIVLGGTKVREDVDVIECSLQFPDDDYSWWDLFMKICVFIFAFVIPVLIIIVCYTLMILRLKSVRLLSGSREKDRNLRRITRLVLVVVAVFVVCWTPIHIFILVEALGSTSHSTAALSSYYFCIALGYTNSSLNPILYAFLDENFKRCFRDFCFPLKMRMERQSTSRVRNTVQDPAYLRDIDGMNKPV
UniProt P41146, whole entry: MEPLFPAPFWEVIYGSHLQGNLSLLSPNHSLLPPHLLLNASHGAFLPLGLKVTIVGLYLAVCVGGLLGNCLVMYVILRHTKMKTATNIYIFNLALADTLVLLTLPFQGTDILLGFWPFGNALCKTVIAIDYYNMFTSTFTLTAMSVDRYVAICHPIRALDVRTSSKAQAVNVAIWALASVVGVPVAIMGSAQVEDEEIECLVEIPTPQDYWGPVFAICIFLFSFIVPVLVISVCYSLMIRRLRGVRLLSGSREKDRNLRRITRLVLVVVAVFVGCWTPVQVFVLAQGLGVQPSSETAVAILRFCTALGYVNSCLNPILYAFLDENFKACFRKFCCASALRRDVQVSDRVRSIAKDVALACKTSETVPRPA

What was measured:
Mu-type opioid receptor [1] = target: T1, Mu-type opioid receptor (Homo sapiens, UniProt P35372); assay: ASSAY_NAME: Radioligand Dose-Displacement Binding Assay DESCRIPTION: Radioligand dose-displacement binding assays for t-opioid receptors used 0.3 nM [3H]-diprenorphine (Perkin Elmer, Shelton, Conn.), with 5 mg membrane protein/well in a final volume of 500 ul binding buffer (10 mM MgCl2, 1 mM EDTA, 5% DMSO, 50 mM HEPES, pH 7.4). Reactions were carried out in the absence or presence of increasing c
[2] = target: T2, Delta-type opioid receptor (Homo sapiens, UniProt P41143); assay: ASSAY_NAME: Radioligand Dose-Displacement Binding Assay DESCRIPTION: Delta-opioid Receptor Binding Assay Procedures were conducted as follows. Radioligand dose-displacement assays used 0.3 nM [3H]-Naltrindole (Perkin Elmer, Shelton, Conn.; 33.0 Ci/mmole) with 5 ug membrane protein (Perkin Elmer, Shelton, Conn.) in a final volume of 500 ul binding buffer (5 mM MgCl2, 5% DMSO, 50 mM Trizma base, pH; conditions: pH 7.4
[3] = target: T3, Kappa-type opioid receptor (Homo sapiens, UniProt P41145); assay: ASSAY_NAME: Radioligand Dose-Displacement Binding Assay DESCRIPTION: Radioligand dose displacement assays used 0.4 nM [3H]-U69,593 (GE Healthcare, Piscataway, N.J.; 40 Ci/mmole) with 15 μg membrane protein (recombinant κ opioid receptor expressed in HEK 293 cells; in-house prep) in a final volume of 200 μl binding buffer (5% DMSO, 50 mM Trizma base, pH 7.4). Non-specific binding was
[4] = target: T3, Kappa-type opioid receptor; assay: ASSAY_NAME: Functional Assay DESCRIPTION: Functional [35S]GTPgammaS binding assays were conducted as follows. kippa opioid receptor membrane solution was prepared by sequentially adding final concentrations of 0.026 ug/ul kippa membrane protein (in-house), 10 ug/mL saponin, 3 uM GDP and 0.20 nM [35S]GTPgammaS to binding buffer (100 mM NaCl, 10 mM MgCl2, 20 mM HEPES, pH 7.4) on ice. The prepared me
[5] = target: T2, Delta-type opioid receptor; assay: ASSAY_NAME: Functional Assay DESCRIPTION: Functional [35S]GTPgammaS binding assays were conducted as follows. Delta opioid receptor membrane solution was prepared by sequentially adding final concentrations of 0.026 ug/ul delta membrane protein (Perkin Elmer, Shelton, Conn.), 10 ug/mL saponin, 3 uM GDP and 0.20 nM [35S]GTPgammaS to binding buffer (100 mM NaCl, 10 mM MgCl2, 20 mM HEPES, pH 7.4) on
Mu-type opioid receptor [6] = target: T1, Mu-type opioid receptor; assay: ASSAY_NAME: Functional Assay DESCRIPTION: [35S]GTPgammaS functional assays were conducted using freshly thawed u-receptor membranes (Perkin Elmer, Shelton, Conn.). Assay reactions were prepared by sequentially adding the following reagents to binding buffer (100 mM NaCl, 10 mM MgCl2, 20 mM HEPES, pH 7.4) on ice (final concentrations indicated): membrane protein (0.026 mg/mL), saponin (10 mg/mL), G
Nociceptin receptor = Nociceptin receptor (Homo sapiens, UniProt P41146); assay: ASSAY_NAME: Radioligand Dose-Displacement Binding Assay DESCRIPTION: Radioligand binding assays (screening and dose-displacement) used 0.1 nM [3H]-nociceptin (Perkin Elmer, Shelton, Conn.; 87.7 Ci/mmole) with 12 ug membrane protein in a final volume of 500 ul binding buffer (10 mM MgCl2, 1 mM EDTA, 5% DMSO, 50 mM HEPES, pH 7.4). Non-specific binding was determined in the presence of 10 nM unlabele

SMILES	Ki (Mu-type opioid receptor [1]) [nM]	Ki [3] [nM]	EC50 [4] [nM]	other results
CO[C@]12CC[C@@]3(C[C@@H]1COc1ccc(-n4ccnc4)cc1)[C@H]1Cc4ccc(O)c5c4[C@@]3(CCN1CC1CC1)[C@H]2O5	0.93	–	–	Ki [2]: 2.38 nM
CC[C@H](C)[C@H](N)C(=O)OC[C@H]1C[C@@]23CC[C@]1(OC)[C@@H]1Oc4c(O)ccc5c4[C@@]12CCN(CC1CC1)[C@@H]3C5	0.15	0.06	0.96	–
C=Cc1ccc2c3c1O[C@H]1[C@@]4(OC)CC[C@@]5(C[C@@H]4COCc4ccccc4)[C@@H](C2)N(C)CC[C@]315	–	–	6.82	–
COc1ccc2c3c1O[C@H]1[C@@]4(OC)CC[C@@]5(C[C@@H]4COCc4cccc(NC(N)=O)c4)[C@@H](C2)N(CC2CC2)CC[C@]315	–	1.37	–	–
CO[C@]12CC[C@@]3(C[C@@H]1COCc1ccccc1)[C@H]1Cc4ccc(O)c5c4[C@@]3(CCN1)[C@H]2O5	–	–	0.84	Ki [2]: 13.8 nM; EC50 [5]: 17.3 nM
CO[C@]12CC[C@@]3(C[C@@H]1COCc1ccccc1)[C@H]1Cc4ccc(F)c5c4[C@@]3(CCN1CC1CC1)[C@H]2O5	17.4	–	1.5	EC50 (Mu-type opioid receptor [6]): 11.4 nM; Ki [2]: 195 nM
CCCc1cc(COC[C@H]2C[C@@]34CC[C@]2(OC)[C@@H]2Oc5c(OC)ccc6c5[C@@]23CCN(C)[C@@H]4C6)on1	–	16.2	645	–
COc1ccc2c3c1O[C@H]1[C@@]4(c5ccccc5)CC[C@@]5(C[C@@H]4COCc4ccccc4)[C@@H](C2)N(CC2CC2)CC[C@]315	–	1.07	–	–
CO[C@]12CC[C@@]3(C[C@@H]1COc1ccc(-n4ccnc4)cc1)[C@H]1Cc4ccc(O)c5c4[C@@]3(CCN1C)[C@H]2O5	–	4.18	129	Ki [2]: 43 nM; EC50 [5]: 75.3 nM
COc1ccc2c3c1O[C@H]1[C@@]4(OC)CC[C@@]5(C[C@@H]4CN(Cc4ccccc4)C(C)=O)[C@@H](C2)N(CC2CC2)CC[C@]315	–	0.14	8.13	–
CCOC(=O)CC[C@H]1[C@H](COCc2ccccc2)[C@]2(OC)CC[C@]13[C@H]1Cc4ccc(OC)c5c4[C@@]3(CCN1CC1CC1)[C@H]2O5	–	8.33	–	–
COc1ccc2c3c1O[C@H]1[C@@]4(OC)CC[C@@]5(C[C@@H]4CSc4nncs4)[C@@H](C2)N(C)CC[C@]315	–	–	10300	–
COc1ccc2c3c1O[C@H]1[C@@]4(OC)CC[C@@]5(C[C@@H]4CN(Cc4ccccc4)S(C)(=O)=O)[C@@H](C2)N(CC2CC2)CC[C@]315	–	0.43	–	–
CO[C@]12CC[C@@]3(C[C@@H]1COCc1ccccc1)[C@H]1Cc4ccc(C(N)=O)c5c4[C@@]3(CCN1C)[C@H]2O5	–	0.15	–	–
COc1ccc2c3c1O[C@H]1[C@@]4(OC)CC[C@@]5(C[C@@H]4C(C)(C)OCc4ccccc4)[C@@H](C2)N(CC2CC2)CC[C@]315	1.76	0.93	–	EC50 (Mu-type opioid receptor [6]): 5.85 nM
CC[C@H](C)[C@H](N)C(=O)OC[C@H]1C[C@@]23CC[C@]1(OC)[C@@H]1Oc4c(OC)ccc5c4[C@@]12CCN(CC1CC1)[C@@H]3C5	–	0.73	–	–
COCCOCCOCCOCCOCCOc1ccc2c3c1O[C@H]1[C@@]4(OC)CC[C@@]5(C[C@@H]4COCc4ccccc4)[C@@H](C2)N(CC2CC2)CC[C@]315	26.9	–	42.2	EC50 [5]: 87.5 nM
COc1ccc2c3c1O[C@H]1[C@@]4(OC)CC[C@@]5(C[C@@H]4COC(=O)[C@@H](N)Cc4ccccc4)[C@@H](C2)N(CC2CC2)CC[C@]315	14.3	4.39	–	Ki [2]: 138 nM
COCCOCCOCCOCCOCCO[C@]12CC[C@@]3(C[C@@H]1COCc1ccccc1)[C@H]1Cc4ccc(OC)c5c4[C@@]3(CCN1CC1CC1)[C@H]2O5	15	–	–	–
COc1ccc2c3c1O[C@H]1[C@@]4(OC)CC[C@@]5(C[C@@H]4COCc4ccccc4)[C@@H](C2)NCC[C@]315	–	–	22.5	–

SMILES	Ki (Mu-type opioid receptor [1]) [nM]	Ki [3] [nM]	EC50 [4] [nM]	other results
CO[C@]12CC[C@@]3(C[C@@H]1COCc1ccccc1)[C@H]1Cc4ccc(OCC(N)=O)c5c4[C@@]3(CCN1CC1CC1)[C@H]2O5	8.69	0.29	2.44	–
COc1ccc2c3c1O[C@H]1[C@@]4(OC)CC[C@@]5(C[C@@H]4CNCc4ccccc4)[C@@H](C2)N(CC2CC2)CC[C@]315	9.01	–	–	–
COc1ccc2c3c1O[C@H]1[C@@]4(OC)CC[C@@]5(C[C@@H]4COC(=O)[C@@H](N)CC(C)C)[C@@H](C2)N(CC2CC2)CC[C@]315	7.65	1.16	–	EC50 [5]: 129 nM
CO[C@]12CC[C@@]3(C[C@@H]1COCc1ccccc1)[C@H]1Cc4ccc(NS(C)(=O)=O)c5c4[C@@]3(CCN1C)[C@H]2O5	–	0.53	–	Ki (Nociceptin receptor): 1550 nM
CO[C@]12CC[C@@]3(C[C@@H]1COCc1ccccc1)[C@H]1Cc4ccc(F)c5c4[C@@]3(CCN1C)[C@H]2O5	–	0.19	–	Ki (Nociceptin receptor): 286 nM
COc1ccc2c3c1O[C@H]1[C@@]4(OC)CC[C@@]5(C[C@@H]4C[S+]([O-])Cc4ccccc4)[C@@H](C2)N(CC2CC2)CC[C@]315 (some centres undefined)	14	0.43	9.08	Ki (Nociceptin receptor): 6020 nM
CO[C@]12CC[C@@]3(C[C@@H]1COCc1ccccc1)[C@H]1Cc4ccc(OCc5nn[nH]n5)c5c4[C@@]3(CCN1CC1CC1)[C@H]2O5	20.4	32.7	–	–
COc1ccc2c3c1O[C@H]1[C@@]4(OC)CC[C@@]5(C[C@@H]4CS(=O)(=O)Cc4ccccc4)[C@@H](C2)N(CC2CC2)CC[C@]315	–	1.39	–	–
CCOC(=O)CC[C@H]1[C@H](COCc2ccccc2)[C@@]23CC[C@]1(OC)[C@@H]1Oc4c(OC)ccc5c4[C@@]12CCN(CC1CC1)[C@@H]3C5	–	2.55	129	–
CO[C@]12CC[C@@]3(C[C@@H]1COCc1ccccc1)[C@H]1Cc4ccc(C(N)=O)c5c4[C@@]3(CCN1CC1CC1)[C@H]2O5	0.34	0.1	0.7	EC50 (Mu-type opioid receptor [6]): 0.62 nM
COc1ccc2c3c1O[C@H]1[C@@]4(OC)CC[C@@]5(C[C@@H]4CSCc4ccccc4)[C@@H](C2)N(CC2CC2)CC[C@]315	4.69	0.14	2.29	EC50 (Mu-type opioid receptor [6]): 32.7 nM; Ki (Nociceptin receptor): 1530 nM
CO[C@]12CC[C@@]3(C[C@@H]1COC(=O)[C@@H](N)Cc1ccccc1)[C@H]1Cc4ccc(O)c5c4[C@@]3(CCN1CC1CC1)[C@H]2O5	0.19	–	2.04	Ki [2]: 1.23 nM; EC50 [5]: 0.82 nM
CO[C@]12CC[C@@]3(C[C@@H]1COC(=O)[C@H](C)N)[C@H]1Cc4ccc(O)c5c4[C@@]3(CCN1CC1CC1)[C@H]2O5	1.4	0.14	2.59	–
CO[C@]12CC[C@@]3(C[C@@H]1COCc1ccccc1)[C@H]1Cc4ccc(N)c5c4[C@@]3(CCN1C)[C@H]2O5	–	–	–	EC50 [5]: 273 nM
COCCOCCOCCOc1ccc2c3c1O[C@H]1[C@@]4(OC)CC[C@@]5(C[C@@H]4COCc4ccccc4)[C@@H](C2)N(CC2CC2)CC[C@]315	6.72	2.55	11.4	–
CO[C@]12CC[C@@]3(C[C@@H]1COCc1cccc(NC(=O)c4ccccc4)c1)[C@H]1Cc4ccc(O)c5c4[C@@]3(CCN1CC1CC1)[C@H]2O5	1.17	0.15	0.54	–
COc1ccc2c3c1O[C@H]1[C@@]4(OC)CC[C@@]5(C[C@@H]4COc4ccc(-n6ccnc6)cc4)[C@@H](C2)N(CC2CC2)CC[C@]315	–	–	5460	–
COC(=O)COc1ccc(COC[C@H]2C[C@@]34CC[C@]2(OC)[C@@H]2Oc5c(OC)ccc6c5[C@@]23CCN(CC2CC2)[C@@H]4C6)cc1	–	–	95.1	Ki [2]: 739 nM; EC50 [5]: 778 nM
COc1ccc2c3c1O[C@H]1[C@@]4(O)CC[C@@]5(C[C@@H]4COCc4ccccc4)[C@@H](C2)N(CC2CC2)CC[C@]315	3.32	–	–	–
CO[C@]12CC[C@@]3(C[C@@H]1COCc1cc4ccccc4s1)[C@H]1Cc4ccc(OCCO)c5c4[C@@]3(CCN1CC1CC1)[C@H]2O5	–	2.51	–	Ki [2]: 278 nM
